Biological target: neurotensin receptor 1 (NTSR1) (human) (UniProt P30989)

Amino acid sequences for entries named in this document (tags omitted).
UniProt P30989, whole entry: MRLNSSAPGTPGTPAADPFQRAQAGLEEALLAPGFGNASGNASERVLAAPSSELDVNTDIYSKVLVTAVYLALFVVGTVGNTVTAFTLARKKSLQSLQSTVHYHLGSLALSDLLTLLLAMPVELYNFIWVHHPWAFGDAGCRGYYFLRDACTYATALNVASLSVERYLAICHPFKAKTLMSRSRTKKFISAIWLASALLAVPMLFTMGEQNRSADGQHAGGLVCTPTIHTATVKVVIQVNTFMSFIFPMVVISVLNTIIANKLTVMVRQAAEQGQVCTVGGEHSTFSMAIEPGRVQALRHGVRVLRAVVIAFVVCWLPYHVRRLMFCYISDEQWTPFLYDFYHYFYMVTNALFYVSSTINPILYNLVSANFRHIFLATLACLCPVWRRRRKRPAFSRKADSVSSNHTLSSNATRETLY

Substance: Glu1NTS (peptide)
- EC50 of NTSR1 activation, IP1 accumulation assay in NTSR1-CHO cells: 4 nM
